Data as given in US20020160986A1, “Compounds having activity as inhibitors of cytochrome P450RAI” (priority 2000, published 2002).

Protein sequences, listed by entry. Tags and fused reporters are not part of them.
UniProt P10826, whole entry, species assumed: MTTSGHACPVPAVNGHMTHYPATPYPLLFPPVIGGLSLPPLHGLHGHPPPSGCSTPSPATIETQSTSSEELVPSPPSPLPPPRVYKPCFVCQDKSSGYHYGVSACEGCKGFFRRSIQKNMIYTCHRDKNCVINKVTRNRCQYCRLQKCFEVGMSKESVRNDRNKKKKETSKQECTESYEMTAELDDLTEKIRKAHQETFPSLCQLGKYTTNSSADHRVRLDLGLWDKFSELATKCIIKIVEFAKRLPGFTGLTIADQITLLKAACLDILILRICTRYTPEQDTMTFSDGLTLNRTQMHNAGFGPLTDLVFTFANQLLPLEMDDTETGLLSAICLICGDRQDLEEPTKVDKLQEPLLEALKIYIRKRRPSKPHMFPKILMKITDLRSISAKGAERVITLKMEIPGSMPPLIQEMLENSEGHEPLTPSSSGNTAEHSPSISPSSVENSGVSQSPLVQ

Molecular target: RARβ (Homo sapiens, UniProt P10826)
Assay: ligand binding assay, RARβ
Conditions: read-out: RAR β Kd
Source text: The results if the ligand binding assay for several preferred compounds of the invention are included in Table 1.

4-[4-(1-Benzylmethylamino-cyclopropyl)-phenylethynyl]-benzoic acid [Compound 116]
Kd: 732 nM
